The record followed here is ChEMBL document CHEMBL3745640, “Challenges in the Discovery of Indoleamine 2,3-Dioxygenase 1 (IDO1) Inhibitors” (J Med Chem, 2015).

By UniProt entry, the sequences of proteins in these tests, tags left out.
UniProt P14902, whole entry: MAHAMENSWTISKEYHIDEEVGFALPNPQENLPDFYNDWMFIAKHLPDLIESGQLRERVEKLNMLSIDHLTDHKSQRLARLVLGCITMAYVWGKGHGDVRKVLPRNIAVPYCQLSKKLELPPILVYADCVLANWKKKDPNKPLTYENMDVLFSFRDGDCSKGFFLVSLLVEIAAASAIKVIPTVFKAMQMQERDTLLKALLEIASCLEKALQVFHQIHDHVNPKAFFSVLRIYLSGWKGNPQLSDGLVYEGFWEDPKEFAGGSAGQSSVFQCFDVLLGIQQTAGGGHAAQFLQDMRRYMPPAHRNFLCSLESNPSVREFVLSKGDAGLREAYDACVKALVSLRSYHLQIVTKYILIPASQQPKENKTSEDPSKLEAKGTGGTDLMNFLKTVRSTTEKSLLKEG

pIC50: −log10 of the molar value.

This test concerns the target Indoleamine 2,3-dioxygenase 1 (Homo sapiens, UniProt P14902). Nature of the test: Inhibition of C-terminal 6His-tagged human IDO using L-tryptophan as substrate preincubated for 5 mins followed by substrate addition measured after 15 mins by spectrophotometric analysis.

What is called pIC50 is the negative decadic logarithm of the IC50, by convention in mol/L. `OC(CC1c2ccccc2-n2cncc21)C1CCCCC1` (stereo unspecified): the pIC50 is more than 6.00.
